Columns and labels:
[1] = target: T1, AVP-V1 sites (Rattus norvegicus, UniProt P30560); assay: [^3 H]AVP binding to crude membrane preparation of male rat liver (AVP-V1 sites); conditions: read-out: Receptor Binding Results IC50 (nM) [^3 H]-AVP-V1
T1 construct: crude membrane preparation of male rat liver (AVP-V1 sites); from tissue; host or cells: male rat liver, crude membranes
Procedure: (§1) Nonspecific binding (5-10% of the total binding) was determined using 10 μM unlabeled AVP, and the binding reaction was terminated by filtration as described above for the [^3 H]OT binding assay.

Protein sequences, listed by entry. Tags and fused reporters are not part of them.
UniProt P30560, whole entry: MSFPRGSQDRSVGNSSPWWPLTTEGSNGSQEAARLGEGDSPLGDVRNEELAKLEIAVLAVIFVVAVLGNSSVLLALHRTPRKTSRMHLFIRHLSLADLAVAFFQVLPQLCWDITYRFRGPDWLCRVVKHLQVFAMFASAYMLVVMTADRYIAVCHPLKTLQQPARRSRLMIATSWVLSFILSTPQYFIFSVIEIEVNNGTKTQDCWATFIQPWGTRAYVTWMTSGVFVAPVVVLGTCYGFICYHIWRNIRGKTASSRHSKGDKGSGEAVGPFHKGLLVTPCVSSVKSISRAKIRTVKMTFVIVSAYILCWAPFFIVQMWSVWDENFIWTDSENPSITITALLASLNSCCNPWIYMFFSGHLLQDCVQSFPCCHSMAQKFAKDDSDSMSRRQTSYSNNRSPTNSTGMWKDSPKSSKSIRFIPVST
UniProt Q00788, whole entry: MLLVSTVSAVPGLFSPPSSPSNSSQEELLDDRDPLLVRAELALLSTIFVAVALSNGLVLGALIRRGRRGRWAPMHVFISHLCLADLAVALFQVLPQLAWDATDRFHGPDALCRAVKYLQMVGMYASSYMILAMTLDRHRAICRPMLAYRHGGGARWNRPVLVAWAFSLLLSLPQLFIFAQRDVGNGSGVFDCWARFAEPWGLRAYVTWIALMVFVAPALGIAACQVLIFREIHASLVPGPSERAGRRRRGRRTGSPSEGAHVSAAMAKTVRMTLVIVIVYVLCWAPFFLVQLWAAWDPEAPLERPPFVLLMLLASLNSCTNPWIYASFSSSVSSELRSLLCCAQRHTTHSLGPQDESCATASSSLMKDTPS

[2] = target: T2, AVP-V2 sites (Rattus norvegicus, UniProt Q00788); assay: [^3 H]AVP binding to crude membrane preparation of male rat kidney medulla (AVP-V2 sites); conditions: rat kidney medulla membranes, 2 nM [^3 H]AVP; read-out: Receptor Binding Results IC50 (nM) [^3 H]-AVP-V2
T2 construct: male rat liver (AVP-V1 sites) or kidney medulla (AVP-V2 sites); from tissue; host or cells: male rat kidney medulla, crude membranes
Procedure: as §1

Row | Substance | IC50 [1] [nM] | IC50 [2] [nM]
1 | C-[D,L-3-(3-(7-Methyl)indolyl)alanyl-L-isoleucyl-D-pipecolyl-L-pipecolyl-D- histidyl-L-prolyl] [Example 155] | 10000 | 
2 | c-[D,L-3-(3-(1-Methyl)indolyl)alanyl-L-isoleucyl-D-pipecolyl-L-pipecolyl-D- histidyl-L-prolyl] [Example 153] | 10000 | 
3 | c-[D-Phenylalanyl-L-isoleucinyl-D-pipecolyl-D-piperazin-2-yl(4-Cbz)-L-(BOM)histidyl-L-prolyl] [Example 93] | > 10000 | > 10000

Reference: patent US5225528A, “Cyclic hexapeptide oxytocin antagonists” (priority 1990, dated 1993)
